Target: Retinoic acid receptor alpha (Mus musculus, UniProt P11416)
Experiment: Inhibition of [3H]ATRA binding to mouse Retinoic acid receptor RAR alpha
Outline: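 Radioligand competition assay for RARα, measuring inhibition of [3H]-(all-E)-RA binding by unlabeled retinoid over a dose series to derive IC50.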

By UniProt entry, the sequences of proteins in these tests, tags left out.
UniProt P11416, whole entry: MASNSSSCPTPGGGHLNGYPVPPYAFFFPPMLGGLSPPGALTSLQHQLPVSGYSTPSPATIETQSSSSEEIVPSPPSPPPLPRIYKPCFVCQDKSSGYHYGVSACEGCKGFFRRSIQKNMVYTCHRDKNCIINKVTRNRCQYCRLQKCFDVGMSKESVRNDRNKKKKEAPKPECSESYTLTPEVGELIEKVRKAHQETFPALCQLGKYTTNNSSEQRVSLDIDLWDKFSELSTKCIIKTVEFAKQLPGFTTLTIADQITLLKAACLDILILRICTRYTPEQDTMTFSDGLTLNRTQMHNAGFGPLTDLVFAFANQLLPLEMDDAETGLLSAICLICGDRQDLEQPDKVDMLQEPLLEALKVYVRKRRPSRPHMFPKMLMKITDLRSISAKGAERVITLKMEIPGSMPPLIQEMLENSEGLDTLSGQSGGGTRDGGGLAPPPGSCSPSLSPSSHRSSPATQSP

## CCC1=C(C(C)C)/C(=C/C(C)=C\C=C\C(C)=C\C(=O)O)CCC1
  IC50: > 1000 nM

— ChEMBL document CHEMBL1129637, “Conformationally defined 6-s-trans-retinoic acid analogs. 3. Structure-activity relationships for nuclear receptor binding, transcriptional activity, and cancer chemopreventive activity” (J Med Chem, 1996)
